Assay results taken from paper PMC9555727, “Protein quaternary structures in solution are a mixture of multiple forms†” (Chemical Science, 2022).

Key:
[1] = molecular target: deoxyribose-phosphate aldolase (DeoC) (E. coli BL21 (DE3)); experiment: SEC; 30 μg protein on Superdex 200 Increase 10/300 GL in PBS pH 7.4; MM from a standard curve of elution volumes
[2] = molecular target: deoxyribose-phosphate aldolase (DeoC) (E. coli BL21 (DE3)); experiment: SAXS; EMBL P12 beamline, 20 °C, four concentrations between about 10 and 90 μM; MM from I(0) and equilibrium fit with OLIGOMER on PDB structures
[3] = molecular target: deoxyribose-phosphate aldolase (DeoC) (E. coli BL21 (DE3)); experiment: mass photometry; protein stocks diluted in PBS pH 7.4 to nanomolar concentrations (~100 nM) immediately before measurement; detection threshold ~40 kDa
[4] = molecular target: deoxyribose-phosphate aldolase (DeoC) (E. coli BL21 (DE3)); experiment: native MS; online buffer exchange MS; proteins diluted in 50 mM HEPES, 50 mM NaCl pH 7.4 (FabG: 25 mM tricine, 50 mM NaCl pH 8.5), overnight at 4 °C, exchanged online to 200 mM ammonium acetate pH 6.8; range of concentrations 40-0.15 μM before dilution; DeoC: apparent affinity, dimer to monomers, fit of eqn (1)

deoxyribose-phosphate aldolase (DeoC) (enzyme)
stoichiometry N [1]: 2
stoichiometry N [2]: 2
stoichiometry N [3]: 2
pKd [4]: 5.66
stoichiometry N [4]: 2

pKd: −log10 of the molar value.
